Source: patent EP2397477B1, “Heterocyclic-substituted piperidine compounds and the uses thereof” (dated 2008)

Chains of the proteins cited; added tags and fusions are not shown. Lines headed by an entry give the natural chain unless they say otherwise; changes in a name come on top.
UniProt P41146: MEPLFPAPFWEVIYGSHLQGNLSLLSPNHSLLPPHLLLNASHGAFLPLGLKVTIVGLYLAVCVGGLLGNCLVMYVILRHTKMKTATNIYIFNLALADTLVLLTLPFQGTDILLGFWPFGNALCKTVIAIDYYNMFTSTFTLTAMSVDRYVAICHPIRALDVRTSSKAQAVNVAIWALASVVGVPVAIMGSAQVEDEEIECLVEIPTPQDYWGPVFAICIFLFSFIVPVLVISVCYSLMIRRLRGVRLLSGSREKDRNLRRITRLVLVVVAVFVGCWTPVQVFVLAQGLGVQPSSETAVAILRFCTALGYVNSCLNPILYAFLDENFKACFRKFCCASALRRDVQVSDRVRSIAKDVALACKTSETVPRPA

biological target: human opioid receptor-like receptor (ORL-1) (Homo sapiens, UniProt P41146); experiment: In vitro ORL-1 receptor binding assay ([3H]-nociceptin displacement); details: read-out: Ki [Average ± Std Deviation] (nM) ORL-1; membranes from recombinant HEK-293 cells; 0.1 nM [3H]-nociceptin

SMILES | Ki
O=C(NCc1ccccc1)C1=C(n2c(=O)c(=O)[nH]c3ccccc32)CCN(C2CCCCCCC2)C1 | 1780 nM
O=C(C1=C(n2c(=O)c(=O)[nH]c3ccccc32)CCN(C2CCCCCCC2)C1)N1CCOCC1 | 1960 nM
O=C(C1=C(n2c(=O)c(=O)[nH]c3ccccc32)CCN(C2CCCCCCC2)C1)N1CCCCC1 | 1760 nM
